The series is classed as physicochemical. The conditions noted are these: pH 7.4.

With “KKKKKKKK-PEG4-(azide-DBCO)-Ahx-(F′)5 [Compound 110]”, the “Size (diameter, nm)” value is 1181 nm.
As for “KKKKKKKK-PEG4-(azide-DBCO)-Ahx-(F′)20 [Compound 112]”, the “Size (diameter, nm)” value turned out to be 19 nm.
As for “KKKKKKKK-PEG24-(azide-DBCO)-Ahx-(F′)5 [Compound 114]”, the figure is 49 nm; as for “KKKKKKKK-PEG24-(azide-DBCO)-Ahx-(F′)20 [Compound 116]”, 21 nm.
As for “KKKKKKKK-PEG24-(azide-DBCO)-Ahx-(F′)10 [Compound 115]”, the figure is 16 nm; as for “KKKKKKKK-PEG4-(azide-DBCO)-Ahx-(F′)10 [Compound 111]”, 11 nm.
For “KKKKKKKK-PEG4-(azide-DBCO)-(Ahx-(F′)10)2 [Compound 113]”, the “Size (diameter, nm)” value worked out at 17 nm.
Under “KKKKKKKK-PEG24-(azide-DBCO)-(Ahx-(F′)10)2 [Compound 117]” stands 26 nm.

Source of the values: patent US20250127887A1 (priority 2021, published 2025).
